Test results reported in ChEMBL document CHEMBL4350957, “Use of the 4-Hydroxytriazole Moiety as a Bioisosteric Tool in the Development of Ionotropic Glutamate Receptor Ligands” (J Med Chem, 2019).

Protein sequences, listed by entry. Tags and fused reporters are not part of them. Lines headed by an entry give the natural chain unless they say otherwise; changes in a name come on top.
UniProt P48058: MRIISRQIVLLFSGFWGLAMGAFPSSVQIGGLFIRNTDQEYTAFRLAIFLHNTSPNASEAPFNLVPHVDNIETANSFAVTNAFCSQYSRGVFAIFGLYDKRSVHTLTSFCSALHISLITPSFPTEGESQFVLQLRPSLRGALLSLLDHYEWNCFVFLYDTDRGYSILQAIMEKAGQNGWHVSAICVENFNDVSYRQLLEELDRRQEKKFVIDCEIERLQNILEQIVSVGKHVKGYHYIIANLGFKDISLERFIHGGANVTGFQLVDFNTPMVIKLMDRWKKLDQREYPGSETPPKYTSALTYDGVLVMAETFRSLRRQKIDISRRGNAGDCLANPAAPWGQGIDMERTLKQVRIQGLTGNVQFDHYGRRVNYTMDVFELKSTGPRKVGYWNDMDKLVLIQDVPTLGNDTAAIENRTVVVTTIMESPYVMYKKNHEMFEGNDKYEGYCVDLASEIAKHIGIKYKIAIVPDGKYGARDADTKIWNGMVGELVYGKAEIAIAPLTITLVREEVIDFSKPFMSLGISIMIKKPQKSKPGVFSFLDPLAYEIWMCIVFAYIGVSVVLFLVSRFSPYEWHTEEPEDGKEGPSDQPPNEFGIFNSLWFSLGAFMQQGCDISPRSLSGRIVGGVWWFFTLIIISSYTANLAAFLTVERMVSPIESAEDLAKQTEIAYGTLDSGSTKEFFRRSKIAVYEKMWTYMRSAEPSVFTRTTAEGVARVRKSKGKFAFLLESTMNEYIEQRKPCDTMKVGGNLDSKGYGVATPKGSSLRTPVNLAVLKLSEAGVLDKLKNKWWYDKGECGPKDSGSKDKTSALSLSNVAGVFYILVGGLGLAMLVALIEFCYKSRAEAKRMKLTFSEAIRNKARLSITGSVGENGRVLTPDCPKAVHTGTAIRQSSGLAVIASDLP
UniProt P19492: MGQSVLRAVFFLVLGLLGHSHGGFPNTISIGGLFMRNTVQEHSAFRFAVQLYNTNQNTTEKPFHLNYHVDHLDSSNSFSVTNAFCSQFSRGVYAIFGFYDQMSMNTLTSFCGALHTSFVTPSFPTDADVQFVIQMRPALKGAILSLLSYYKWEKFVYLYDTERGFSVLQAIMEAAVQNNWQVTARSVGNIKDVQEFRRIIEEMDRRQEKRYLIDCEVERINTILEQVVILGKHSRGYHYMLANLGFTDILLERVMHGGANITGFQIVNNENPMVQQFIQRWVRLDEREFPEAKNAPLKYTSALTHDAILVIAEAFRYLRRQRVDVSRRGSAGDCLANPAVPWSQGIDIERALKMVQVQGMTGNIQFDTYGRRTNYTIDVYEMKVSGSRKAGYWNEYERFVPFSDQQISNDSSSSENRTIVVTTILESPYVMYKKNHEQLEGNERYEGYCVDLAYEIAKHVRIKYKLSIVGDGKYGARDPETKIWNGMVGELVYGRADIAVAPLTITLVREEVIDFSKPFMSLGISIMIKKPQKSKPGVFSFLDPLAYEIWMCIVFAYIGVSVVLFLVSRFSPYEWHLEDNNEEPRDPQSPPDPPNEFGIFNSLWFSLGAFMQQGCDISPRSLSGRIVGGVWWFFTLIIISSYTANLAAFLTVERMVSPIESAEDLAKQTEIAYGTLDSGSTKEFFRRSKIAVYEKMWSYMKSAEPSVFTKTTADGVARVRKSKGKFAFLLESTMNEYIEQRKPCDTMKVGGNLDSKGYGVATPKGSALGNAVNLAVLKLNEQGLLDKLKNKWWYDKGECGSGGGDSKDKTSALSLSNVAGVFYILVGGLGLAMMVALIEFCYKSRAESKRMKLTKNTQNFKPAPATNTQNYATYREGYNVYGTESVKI
UniProt P19490: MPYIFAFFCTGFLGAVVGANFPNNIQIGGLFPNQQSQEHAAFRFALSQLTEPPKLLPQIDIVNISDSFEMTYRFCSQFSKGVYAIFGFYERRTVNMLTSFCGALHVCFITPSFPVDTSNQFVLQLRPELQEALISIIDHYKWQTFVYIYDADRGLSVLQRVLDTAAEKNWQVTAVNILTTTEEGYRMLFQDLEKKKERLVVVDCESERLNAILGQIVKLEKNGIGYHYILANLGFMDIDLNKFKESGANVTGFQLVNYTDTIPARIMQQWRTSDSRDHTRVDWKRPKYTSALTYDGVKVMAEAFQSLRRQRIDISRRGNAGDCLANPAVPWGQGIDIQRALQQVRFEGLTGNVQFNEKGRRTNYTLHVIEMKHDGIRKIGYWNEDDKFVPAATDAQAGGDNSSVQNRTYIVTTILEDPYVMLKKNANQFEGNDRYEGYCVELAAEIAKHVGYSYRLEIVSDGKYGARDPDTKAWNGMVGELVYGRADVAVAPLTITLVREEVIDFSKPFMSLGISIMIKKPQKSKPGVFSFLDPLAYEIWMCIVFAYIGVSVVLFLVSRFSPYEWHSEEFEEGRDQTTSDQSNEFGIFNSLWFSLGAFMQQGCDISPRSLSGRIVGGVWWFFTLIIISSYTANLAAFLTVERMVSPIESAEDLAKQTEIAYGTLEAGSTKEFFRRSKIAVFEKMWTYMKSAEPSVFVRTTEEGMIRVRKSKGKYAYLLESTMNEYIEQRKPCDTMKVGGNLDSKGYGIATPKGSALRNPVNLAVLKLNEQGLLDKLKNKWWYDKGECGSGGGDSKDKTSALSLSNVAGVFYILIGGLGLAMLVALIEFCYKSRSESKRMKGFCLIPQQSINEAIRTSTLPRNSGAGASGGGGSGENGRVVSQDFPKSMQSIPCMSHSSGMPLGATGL
UniProt P19493: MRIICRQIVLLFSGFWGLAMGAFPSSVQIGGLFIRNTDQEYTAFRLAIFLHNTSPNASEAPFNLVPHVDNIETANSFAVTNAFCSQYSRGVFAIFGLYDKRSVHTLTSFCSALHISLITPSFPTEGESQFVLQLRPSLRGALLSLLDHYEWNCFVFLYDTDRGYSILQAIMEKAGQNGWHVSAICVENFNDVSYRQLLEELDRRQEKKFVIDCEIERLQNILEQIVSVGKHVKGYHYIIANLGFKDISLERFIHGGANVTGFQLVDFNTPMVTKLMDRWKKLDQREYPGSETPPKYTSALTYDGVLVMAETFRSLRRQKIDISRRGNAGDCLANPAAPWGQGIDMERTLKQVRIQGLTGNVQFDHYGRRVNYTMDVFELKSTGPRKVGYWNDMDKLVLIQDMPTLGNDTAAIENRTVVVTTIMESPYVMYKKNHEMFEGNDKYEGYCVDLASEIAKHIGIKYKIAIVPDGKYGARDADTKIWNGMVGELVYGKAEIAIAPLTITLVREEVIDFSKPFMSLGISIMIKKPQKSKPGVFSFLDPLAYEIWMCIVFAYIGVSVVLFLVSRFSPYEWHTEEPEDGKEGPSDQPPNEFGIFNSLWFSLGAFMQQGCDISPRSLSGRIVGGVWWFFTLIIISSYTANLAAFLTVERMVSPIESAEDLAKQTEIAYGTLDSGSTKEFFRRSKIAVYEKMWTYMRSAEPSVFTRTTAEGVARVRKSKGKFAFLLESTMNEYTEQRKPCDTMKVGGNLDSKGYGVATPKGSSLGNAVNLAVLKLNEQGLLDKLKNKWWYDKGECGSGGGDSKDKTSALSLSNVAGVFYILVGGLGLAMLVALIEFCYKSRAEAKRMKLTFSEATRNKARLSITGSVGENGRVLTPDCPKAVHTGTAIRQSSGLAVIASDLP
UniProt P19491: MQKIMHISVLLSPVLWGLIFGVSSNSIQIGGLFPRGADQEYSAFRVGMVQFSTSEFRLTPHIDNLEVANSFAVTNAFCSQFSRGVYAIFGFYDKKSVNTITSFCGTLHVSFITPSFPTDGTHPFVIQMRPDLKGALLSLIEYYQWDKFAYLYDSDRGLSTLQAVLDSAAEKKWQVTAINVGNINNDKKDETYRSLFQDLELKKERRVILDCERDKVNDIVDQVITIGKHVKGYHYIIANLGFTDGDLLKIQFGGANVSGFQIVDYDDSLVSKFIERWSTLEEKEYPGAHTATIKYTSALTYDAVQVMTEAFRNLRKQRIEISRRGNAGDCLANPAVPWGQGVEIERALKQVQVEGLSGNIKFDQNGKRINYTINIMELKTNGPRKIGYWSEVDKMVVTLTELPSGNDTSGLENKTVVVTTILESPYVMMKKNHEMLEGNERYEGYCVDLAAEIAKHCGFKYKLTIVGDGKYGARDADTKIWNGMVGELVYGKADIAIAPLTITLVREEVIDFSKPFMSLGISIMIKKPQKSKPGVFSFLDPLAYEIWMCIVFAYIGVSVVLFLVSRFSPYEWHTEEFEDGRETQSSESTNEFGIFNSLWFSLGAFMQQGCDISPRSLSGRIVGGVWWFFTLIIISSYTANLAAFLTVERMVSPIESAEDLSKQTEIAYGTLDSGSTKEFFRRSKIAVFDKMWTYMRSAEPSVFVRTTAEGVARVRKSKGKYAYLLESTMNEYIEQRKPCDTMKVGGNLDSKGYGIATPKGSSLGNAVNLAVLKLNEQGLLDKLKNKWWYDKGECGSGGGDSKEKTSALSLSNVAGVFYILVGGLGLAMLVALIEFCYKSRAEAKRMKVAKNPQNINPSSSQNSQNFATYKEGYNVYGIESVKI

Assays:
Glutamate receptor 4 [1] = biological target: Glutamate receptor 4 (Homo sapiens, UniProt P48058)
Glutamate receptor 3 = Glutamate receptor 3 (Rattus norvegicus, UniProt P19492); test: biochemical
Glutamate receptor 1 = Glutamate receptor 1 (Rattus norvegicus, UniProt P19490); test: biochemical
Glutamate receptor 4 [2] = biological target: Glutamate receptor 4 (Rattus norvegicus, UniProt P19493); test: biochemical
[3] = biological target: Glutamate NMDA receptor; Grin1/Grin2b (Rattus norvegicus, UniProt P35439+Q00960)
[4] = biological target: Glutamate NMDA receptor; Grin1/Grin2c (Rattus norvegicus, UniProt P35439+Q00961)
[5] = biological target: Glutamate receptor ionotropic, AMPA (Rattus norvegicus, UniProt P19490+P19491+P19492+P19493)

SMILES | EC50 (Glutamate receptor 4 [1]) | Ki (Glutamate receptor 3) | Ki (Glutamate receptor 1) | Ki (Glutamate receptor 4 [2]) | EC50 [3] | EC50 [4] | Ki (Glutamate NMDA receptor) | IC50 [5]
Cn1nnc(O)c1CC(N)C(=O)O (racemic) | 55 µM | 4.98 µM | 15.7 µM | 4.08 µM | – | – | – | –
Cn1nc(O)c(C(N)C(=O)O)n1 (racemic) | – | – | – | – | 108 µM | 90 µM | 34 µM | –
CCCn1nnc(O)c1CC(N)C(=O)O (racemic) | – | 11.9 µM | 54.1 µM | – | – | – | – | 5.2 µM
